The compounds below were run on Trypanosoma brucei brucei (assay: Antiparasitic activity against bloodstream form of Trypanosoma brucei brucei 427 […] assessed as growth inhibition after 72 hrs by Alamar Blue assay).
Assay type: functional, organism-based
In the case of Nc1nc(N)c(NC(=O)Nc2ccc(C(=O)N[C@@H](CCC(=O)O)C(=O)O)cc2)c(=O)[nH]1, the “growth inhibition (GI)” value is reported as “Dose-dependent effect”.
Nc1nc(N)c(NC(=O)Nc2ccc(C(=O)O)cc2)c(=O)[nH]1 was tested, and the “growth inhibition (GI)” value was “Dose-dependent effect”.
Nc1nc2c(c(=O)[nH]1)N1C(=O)N(c3ccc(C(=O)NC(CCC(=O)O)C(=O)O)cc3)CC1CN2 (stereo not given) was tested, and the “growth inhibition (GI)” value was “Dose-dependent effect”.
In the case of CCOC(=O)CC[C@H](NC(=O)c1ccc(NC(=O)Nc2c(N)nc(N)[nH]c2=O)cc1)C(=O)OCC, the “growth inhibition (GI)” value is reported as “Dose-dependent effect”.
In the case of CCOC(=O)c1ccc(NC(=O)Nc2c(N)nc(N)[nH]c2=O)cc1, the “growth inhibition (GI)” value is reported as “Dose-dependent effect”.

— ChEMBL document CHEMBL3621150, “Characterization of 2,4-Diamino-6-oxo-1,6-dihydropyrimidin-5-yl Ureido Based Inhibitors of Trypanosoma brucei FolD and Testing for Antiparasitic Activity” (J Med Chem, 2015)
